From patent US20210137951A1, “DRUG COMBINATION FOR TREATMENT OF AMYOTROPHIC LATERAL SCLEROSIS, PREPARATION METHOD AND USE THEREOF” (priority 2018, published 2021)

How the values were obtained:
[1] = tested on: hSOD1-G93A transgenic mice; test: Number of mice surviving more than 120 days; assay type: in vivo; settings: intragastric once a day for 4 weeks, 40 mg/kg (positive control 2 mg/kg), 8-9 mice per group
Description: (§1) 10 two-months wild-type BALB/C mice were used as the normal control group, and 110 two-months hSOD1-G93A transgenic mice were randomly divided into 11 groups, 10 mice for each group, and 11 groups are blank group, positive control group, the drug compositions 1-3 of the present invention groups, and the control 1-6 groups, respectively.
(§2) All mice were adaptively fed for three weeks, and a rotating rod experiment was performed once a week. The diameter of the rotating rod was 3.5 cm, and its rotating speed was 12 r/min. Experiment on each mouse was carried out three times in parallel, with a 5 min interval. The longest time recorded was the fall time of mice, the mice with a fall time of shorter than 7 min in the third rotating rod experiment were excluded, and then mice received drugs by intragastric administration, in which the normal control group and the blank group were given physiological saline, while the positive control group, the drug combinations 1-3 groups, and the control groups 1-6 were given corresponding drugs, with the volume of 0.5 ml. Amongst, the gavage dose of positive control group was 2 mg/kg body weight, and the gavage dose of drug combinations 1-3 and controls 1-6 groups was both 40 mg/kg body weight. […] In one experiment, each mouse was tested 3 times at interval of 5 minutes, and the longest time recorded was the fall time of mice. […]

[2] = tested on: hSOD1-G93A transgenic mice; assay type: in vivo; settings: gavage 4 weeks
Description: as §1, §2

For `Nc1nc2ccc(OC(F)(F)F)cc2s1` [Positive control, Riluzole], the “Survival numbers (number of mice surviving for more than 120 days)” value [1] was 4, the “Survival numbers (number of mice surviving for more than 120 days)” value ([1]; listed as riluzole) was “four” and the “Indexes for the fall time and the number of mice surviving more than 120 days, comparison between groups (in words)” value [2] was “obviously longer than that of the mice in the blank group”. The “Effect on delaying the progression of amyotrophic lateral sclerosis (in words)” value ([2]; judged from fall time and mice surviving more than 120 days) was “had the effect on delaying the progression of amyotrophic lateral sclerosis”.
